Assay results reported in paper PMC6962383.
Several values for one entry are separate records, joined by “and”; a condition that tells them apart may be missing. Equal entries are not always repeated.

How the values were obtained:
[1] = molecular target: bovine trypsin (Bos taurus) (UniProt P00760); assay: yeast surface display with four-gate FACS sorting and deep sequencing, enrichment normalized to ddG with purified-protein data
[2] = molecular target: bovine trypsin (Bos taurus) (UniProt P00760); assay: ddG of purified BPTI mutants binding bovine trypsin, mostly from literature; settings: cited from earlier work

| Substance | ddG [1] [kcal/mol] | ddG [2] |
| --- | --- | --- |
| A16G (from UniProt P00974) | 3.6 | 1.76 kcal/mol |
| A16L (from UniProt P00974) | 8.02 | 7.56 kcal/mol |
| A16R (from UniProt P00974) | 4.65 | 4.67 kcal/mol |
| A16S (from UniProt P00974) | 4.5 | 3.03 kcal/mol |
| A16V (from UniProt P00974) | 4.63 | 7.55 kcal/mol |
| A16W (from UniProt P00974) | 8.95 | 9.64 kcal/mol |
| G12A (from UniProt P00974) | 3.36 | 4.35 kcal/mol |
| G36A (from UniProt P00974) | 3.14 | 4.89 kcal/mol |
| I18A (from UniProt P00974) | 5.04 | 4.97 kcal/mol |
| K15A (from UniProt P00974) | 11.1 | 10.5 kcal/mol and 10.1 kcal/mol |
| K15D (from UniProt P00974) | 9.44 | 11.4 kcal/mol |
| K15E (from UniProt P00974) | 8.94 | 9.32 kcal/mol |
| K15F (from UniProt P00974) | 8.29 | 6.95 kcal/mol |
| K15G (from UniProt P00974) | 11 | 12.2 kcal/mol |
| K15H (from UniProt P00974) | 8.36 | 8.69 kcal/mol |
| K15I (from UniProt P00974) | 10.5 | 11.1 kcal/mol |
| K15L (from UniProt P00974) | 9.41 | 8.77 kcal/mol |
| K15M (from UniProt P00974) | 8.61 | 7.61 kcal/mol |
| T11W (from UniProt P00974) | 1.67 | – |
| T11Y (from UniProt P00974) | 2.91 | – |

| Substance | ddG [1] [kcal/mol] | ddG [2] |
| --- | --- | --- |
| V34A (from UniProt P00974) | 2.24 | – |
| V34C (from UniProt P00974) | 4.2 | – |
| V34D (from UniProt P00974) | 2.72 | – |
| V34E (from UniProt P00974) | 3.16 | – |
| V34F (from UniProt P00974) | 2.2 | – |
| V34G (from UniProt P00974) | 1.59 | – |
| V34H (from UniProt P00974) | 1.62 | – |
| V34I (from UniProt P00974) | 2.21 | – |
| V34K (from UniProt P00974) | 3.44 | – |
| V34L (from UniProt P00974) | 3.26 | – |
| V34M (from UniProt P00974) | 2.94 | – |
| V34N (from UniProt P00974) | 1.97 | – |
| V34P (from UniProt P00974) | 2.1 | – |
| V34Q (from UniProt P00974) | 3.08 | – |
| V34R (from UniProt P00974) | 3.16 | – |
| V34S (from UniProt P00974) | 2.41 | – |
| V34T (from UniProt P00974) | 2.72 | – |
| V34W (from UniProt P00974) | 2.39 | – |
| V34Y (from UniProt P00974) | 2.17 | – |
| WT (from UniProt P00974) | – | 0 kcal/mol |

| Substance | ddG [1] [kcal/mol] | ddG [2] |
| --- | --- | --- |
| Y35A (from UniProt P00974) | 3.56 | – |
| Y35C (from UniProt P00974) | 8.29 | – |
| Y35D (from UniProt P00974) | 4.92 | – |
| Y35E (from UniProt P00974) | 5.62 | – |
| Y35F (from UniProt P00974) | 0.809 | – |
| Y35H (from UniProt P00974) | 2.39 | – |
| Y35I (from UniProt P00974) | 6.05 | – |
| Y35K (from UniProt P00974) | 7.81 | – |
| Y35L (from UniProt P00974) | 5.1 | – |
| Y35M (from UniProt P00974) | 2.52 | – |
| Y35N (from UniProt P00974) | 3.43 | – |
| Y35P (from UniProt P00974) | 7.23 | – |
| Y35Q (from UniProt P00974) | 2.57 | – |
| Y35R (from UniProt P00974) | 6.59 | – |
| Y35S (from UniProt P00974) | 2.49 | – |
| Y35T (from UniProt P00974) | 4.2 | – |
| Y35V (from UniProt P00974) | 5.35 | – |
| Y35W (from UniProt P00974) | 1.79 | – |
